For two compounds, IC50 results are on record in PMC3408453, “A Foldamer-Dendrimer Conjugate Neutralizes Synaptotoxic β-Amyloid Oligomers” (PLoS ONE, 2012).

The target of one data set is T1, oligomeric Aβ (Homo sapiens, UniProt P05067).
T1 construct: a depsipeptide derivative of Aβ(1–42) was utilized; made in house; host or cells: chemical peptide synthesis (no expression host)
Briefly: Capture ELISA, biotinyl ligands on streptavidin plate, oligomeric Aβ detected by BAM10. The data set is classed as binding. The method, then:
Biotin-labeled 1 was prepared by elongating the foldamer segment with a biotinyl-aminohexanoyl-Gly-Gly moiety and these derivatives were coupled to G0-PAMAM which furnished biotin-labeled 7. Biotinyl-8 was also prepared. All the labeled ligands were attached to the streptavidin functionalized microplates with a coverage of 5 pmoles per well. […] Because of the potential sterical shielding of the recognition segments over the surface, the ITC affinities cannot be directly compared to the ELISA results.
(§1) Figure 6 ELISA results. (A) Effects of multivalency on the affinities. Normalized absorbances recorded in capture ELISA experiments, where the biotinyl-7 (circles), -8 (triangles) or -1 (squares) are attached to the streptavidin functionalized plate and the increasing surface concentration of Aβ is observed through the BAM10 antibody.
An indirect ELISA experiment was conducted on 96-well streptavidin-coated clear plates (Pierce, Cat.No. 15500, Rockford, IL, US). Biotinyl-compounds bound to streptavidin by incubating 1 µg substance per well for 2 h at ambient temperature. Aβ(1–42) was dissolved in PBS to 100 µM and incubated for 24 h at 37°C. Serial dilutions of the incubated peptide were prepared, and supplemented with Tween (0.05% v/v of the final volume) and BSA (1% w/v of the final volume) prior to use. Compounds were incubated with Aβ oligomers for 1 h at ambient temperature. Bound Aβ was detected by monoclonal anti-Aβ AB clone Bam-10 (Sigma-Aldrich) applied in 1∶10000 dilution for 1 h followed by an incubation with anti-mouse IgG-HRP (DakoCytomation, Glostrup Denmark). Finally, 100 µL tetramethylbenzidine (TMB) solution (Cell Signaling Tecnology Inc., Danvers, USA) was introduced into the wells, and the change in the absorbance at 370 nm was monitored constantly, without the addition of stop solution, on a 96-well plate reader (NOVOstar OPTIMA, BMG Labtech, Offenburg, Germany) equipped with a xenon lamp, fiberglass optics and a shaking microplate carrier. Abs370 values were read near complete saturation of the signal intensity, which was observed after 40 min. For the quantitative analysis of the results, nonlinear regressions were carried out and the IC50 values were optimized with fixed number of blocked ligands per Aβ peptide as determined by ITC [80]. […] Concerning the steric shielding exerted by the solid support, the apparent binding parameters estimated from ELISA are in good accordance.
For orientation: ELISA stands for enzyme-linked immunosorbent assay.

In the next data set the target is T2, fibrillar Aβ (Homo sapiens, UniProt P05067).
T2 construct: Aβ(1–42) was dissolved in PBS to 100 µM and incubated for 24 h at 37°C; made in house; host or cells: chemical peptide synthesis (no expression host)
Briefly: Capture ELISA, biotinyl ligand on streptavidin plate, fibrillar Aβ. The data set is classed as binding. The method, then:
as §1
This phenomenon was tested also in a capture ELISA. Biotin-labeled 4 and 5 were prepared as described and ligation to G0-PAMAM yielded biotin-labeled 9 and 10, respectively. ELISA measurements confirmed the ITC findings (Figure 6B). […]
An indirect ELISA experiment was conducted on 96-well streptavidin-coated clear plates (Pierce, Cat.No. 15500, Rockford, IL, US). […] Bound Aβ was detected by monoclonal anti-Aβ AB clone Bam-10 (Sigma-Aldrich) applied in 1∶10000 dilution for 1 h followed by an incubation with anti-mouse IgG-HRP (DakoCytomation, Glostrup Denmark). Finally, 100 µL tetramethylbenzidine (TMB) solution (Cell Signaling Tecnology Inc., Danvers, USA) was introduced into the wells, and the change in the absorbance at 370 nm was monitored constantly, without the addition of stop solution, on a 96-well plate reader (NOVOstar OPTIMA, BMG Labtech, Offenburg, Germany) equipped with a xenon lamp, fiberglass optics and a shaking microplate carrier. Abs370 values were read near complete saturation of the signal intensity, which was observed after 40 min. […]

Data set [1] has as its target biotinyl-7. The data set is described as follows: ELISA; capture ELISA as for oligomeric Aβ, but with fibrillar Aβ on plate-bound biotinyl-7.
The next data set has as its target biotinyl-10. The data set is described as follows: ELISA; capture ELISA: biotinyl ligands on streptavidin plates, serial dilutions of oligomeric Aβ in PBS with 0.05% Tween and 1% BSA, 1 h at ambient temperature, bound Aβ detected with BAM10; apparent.
A further data set has as its target biotinyl-1. The data set is described as above.
For data set [2], the target named is biotinyl-7. Described as above.
The next data set addresses biotinyl-8. Described as above.
The next data set addresses biotinyl-9. Described as above.

In general, IC50 refers to the concentration that gives 50% inhibition.

As to `N=C(N)NCCC[C@@H](CC(=O)N[C@H]1CCCC[C@@H]1C(=O)N[C@H]1CCCC[C@@H]1C(=O)N[C@@H](CC(=O)O)CC(=O)N[C@H]1CCCC[C@@H]1C(=O)NCC(=O)NCC(=O)N[C@@H](CSC1CC(=O)N(CCC(=O)NCCNC(=O)CCN(CCC(=O)NCCNC(=O)CCN2C(=O)CC(SC[C@H](NC(=O)CNC(=O)CNC(=O)[C@H]3CCCC[C@@H]3NC(=O)C[C@H](CC(=O)O)NC(=O)[C@H]3CCCC[C@@H]3NC(=O)[C@H]3CCCC[C@@H]3NC(=O)C[C@H](CCCNC(=N)N)NC(=O)[C@H]3CCCC[C@@H]3NC(=O)CNC(=O)CNC(=O)CCCCCNC(=O)CCCC[C@@H]3SC[C@@H]4NC(=O)N[C@@H]43)C(N)=O)C2=O)CCN(CCC(=O)NCCNC(=O)CCN2C(=O)CC(SC[C@H](NC(=O)CNC(=O)CNC(=O)[C@H]3CCCC[C@@H]3NC(=O)C[C@H](CC(=O)O)NC(=O)[C@H]3CCCC[C@@H]3NC(=O)[C@H]3CCCC[C@@H]3NC(=O)C[C@H](CCCNC(=N)N)NC(=O)[C@H]3CCCC[C@@H]3NC(=O)CNC(=O)CNC(=O)CCCCCNC(=O)CCCC[C@@H]3SC[C@@H]4NC(=O)N[C@@H]43)C(N)=O)C2=O)CCC(=O)NCCNC(=O)CCN2C(=O)CC(SC[C@H](NC(=O)CNC(=O)CNC(=O)[C@H]3CCCC[C@@H]3NC(=O)C[C@H](CC(=O)O)NC(=O)[C@H]3CCCC[C@@H]3NC(=O)[C@H]3CCCC[C@@H]3NC(=O)C[C@H](CCCNC(=N)N)NC(=O)[C@H]3CCCC[C@@H]3NC(=O)CNC(=O)CNC(=O)CCCCCNC(=O)CCCC[C@@H]3SC[C@@H]4NC(=O)N[C@@H]43)C(N)=O)C2=O)C1=O)C(N)=O)NC(=O)[C@H]1CCCC[C@@H]1NC(=O)CNC(=O)CNC(=O)CCCCCNC(=O)CCCC[C@@H]1SC[C@@H]2NC(=O)N[C@@H]21` (some centres unmarked) [biotinyl-7], the IC50 on oligomeric Aβ was determined as 126 nM; with fibrillar Aβ, 886 nM.
In the case of “β-amyloid Aβ(1–42) (from UniProt P05067 672-713) (peptide)”, the half-inhibitory concentration (IC50) with biotinyl-7 [1] came to 886 nM; in the data set with biotinyl-10, 18500 nM; with biotinyl-1, 12000 nM; with biotinyl-7 [2], 126 nM; with biotinyl-8 it was 933 nM; in the data set with biotinyl-9, 4400 nM.
